{
  "source": "ChEMBL document CHEMBL6078678",
  "about": "“Unveiling the Antimycobacterial Potential of Novel 4-Alkoxyquinolines: Insights into Selectivity, Mechanism of Action, and In Vivo Exposure” (J Med Chem, 2024)",
  "key": {"[1]": {"test": "Aqueous solubility of compound in NH4HCO3 at pH 9.1 incubated for 4 hrs by UHPLC-DAD analysis", "assay_type": "physicochemical", "conditions": "NH4HCO3, pH 9.1"}, "[2]": {"test": "Aqueous solubility of compound in PBS at pH 7.4 incubated for 4 hrs by UHPLC-DAD analysis", "assay_type": "physicochemical"}},
  "data": [
    {"smiles": "CCc1ccc(NCCCOc2cc(C)nc3ccc(OC)cc23)cc1", "values": [
      {"measurement": "solubility at 4 h", "setting": "[1]", "result": 61.4, "unit": "µM"}
    ]},
    {"smiles": "COc1ccc2nc(C)cc(OCCCNc3ccc(Br)cc3)c2c1", "values": [
      {"measurement": "solubility at 4 h", "setting": "[1]", "result": 21, "unit": "µM"}
    ]},
    {"smiles": "COc1ccc2nc(C)cc(OCCCNc3ccc(I)cc3)c2c1", "values": [
      {"measurement": "solubility at 4 h", "setting": "[1]", "result": 2.49, "unit": "µM"},
      {"measurement": "solubility at 4 h", "setting": "[2]", "result": 2.9, "unit": "µM"}
    ]}
  ]
}
